From patent US20250144172A1, “ANTI-FIBROTIC SIALIDASE INHIBITOR COMPOUNDS AND METHODS OF USE” (The Texas A&M University System, priority 2016, published 2025)

By UniProt entry, the sequences of proteins in these tests, tags left out. Where a name states a change or a piece, a line headed by the entry shows the natural chain unless it says otherwise.
UniProt Q8WWR8: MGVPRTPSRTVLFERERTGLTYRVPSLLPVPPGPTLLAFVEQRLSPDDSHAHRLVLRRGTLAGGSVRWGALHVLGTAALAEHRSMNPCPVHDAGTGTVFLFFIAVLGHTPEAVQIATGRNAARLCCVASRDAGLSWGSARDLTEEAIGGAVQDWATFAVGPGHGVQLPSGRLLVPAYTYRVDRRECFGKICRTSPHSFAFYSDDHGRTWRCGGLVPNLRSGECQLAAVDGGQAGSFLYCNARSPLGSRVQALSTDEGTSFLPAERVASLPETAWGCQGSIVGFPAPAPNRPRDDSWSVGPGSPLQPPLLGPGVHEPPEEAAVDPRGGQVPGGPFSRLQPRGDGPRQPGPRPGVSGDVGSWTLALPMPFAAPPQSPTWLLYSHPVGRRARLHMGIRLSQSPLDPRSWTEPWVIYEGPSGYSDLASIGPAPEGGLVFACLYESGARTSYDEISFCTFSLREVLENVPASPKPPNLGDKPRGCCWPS
UniProt Q9UQ49: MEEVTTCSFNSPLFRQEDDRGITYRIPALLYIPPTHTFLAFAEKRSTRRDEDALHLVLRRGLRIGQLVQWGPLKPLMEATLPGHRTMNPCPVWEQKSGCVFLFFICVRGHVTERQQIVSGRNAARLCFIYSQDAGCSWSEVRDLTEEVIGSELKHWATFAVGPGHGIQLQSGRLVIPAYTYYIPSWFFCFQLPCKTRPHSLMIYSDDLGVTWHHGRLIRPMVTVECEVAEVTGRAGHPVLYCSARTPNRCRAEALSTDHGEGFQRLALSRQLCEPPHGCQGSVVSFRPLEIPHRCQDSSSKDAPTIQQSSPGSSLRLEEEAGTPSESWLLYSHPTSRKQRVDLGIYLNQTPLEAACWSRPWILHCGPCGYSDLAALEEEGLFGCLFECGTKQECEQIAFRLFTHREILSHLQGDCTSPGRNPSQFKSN

Columns and labels:
[1] = tested on: mammalian sialidases; settings: cited from earlier work
[2] = target: human NEU4 (Homo sapiens (Human), UniProt Q8WWR8); experiment: human NEU4 sialidase inhibition; settings: read-out: NEU4 IC50
[3] = target: human NEU3 (Homo sapiens (Human), UniProt Q9UQ49); experiment: human NEU3 sialidase inhibition; settings: read-out: NEU3 IC50

CC(=O)N[C@H]1[C@H]([C@H](O)[C@H](O)CO)OC(C(=O)O)=C[C@@H]1O [Compound 1, N-Acetyl-2,3-dehydro-2-deoxyneuraminic acid, reference compound]
inhibition of mammalian sialidases [1]: inhibits all mammalian sialidases | IC50 [2]: 74 µM

CC(=O)N[C@H]1C([C@@H](O)[C@@H](O)Cn2cc(C(C)(C)O)nn2)OC(C(=O)O)=C[C@@H]1O (stereo partly drawn) [Compound 57]
IC50 [3]: 180 ± 40 µM
